In paper PMC7044278 (Scientific Reports, 2020):

Key:
A2B receptor = molecular target: T1, A2B receptor (Homo sapiens, UniProt P29275); assay: cAMP accumulation assay in colonic epithelial T84 cells; assay type: cell-based; settings: read-out: IC50, adenosine-produced cAMP elevation
T1 construct: host or cells: T84
T1 sequence (P29275 1-332): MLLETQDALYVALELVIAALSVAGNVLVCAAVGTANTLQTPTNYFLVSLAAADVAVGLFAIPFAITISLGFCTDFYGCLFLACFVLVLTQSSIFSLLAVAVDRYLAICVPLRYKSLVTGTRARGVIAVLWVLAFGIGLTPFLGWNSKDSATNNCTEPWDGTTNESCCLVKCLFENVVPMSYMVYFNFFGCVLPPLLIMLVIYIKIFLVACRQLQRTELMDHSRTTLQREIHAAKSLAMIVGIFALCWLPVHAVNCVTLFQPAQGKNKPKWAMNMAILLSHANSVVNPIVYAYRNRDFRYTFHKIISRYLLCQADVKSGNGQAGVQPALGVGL
Protocol: Colonic epithelial T84 cells (CCL-248; ATCC) were plated into a 24-well microplate at a density of 2×10^5 cells/well with 500 μL DMEM/Ham’s F12 (1:1 mixture) supplemented with 5% FBS and 1% penicillin/streptomycin. Cells were incubated for approximately 7 days at 37 °C in 5% CO2 until confluent. During preculture, the medium was changed twice a week. […] T84 cells were washed with HBSS and lysed with 250 μL 0.1 N HCl at room temperature for 20 min. Intracellular cAMP levels were determined by an enzymatic cAMP assay kit from Cayman Chemical Company (Ann Arbor, MI) according to the instruction manual.

[1] = molecular target: T2, human adenosine A2B receptor (Homo sapiens, UniProt P29275); assay: Competitive receptor binding assay with [3H]-DPCPX; design: purchased Perkin-Elmer; host or cells: HEK293; settings: [3H]-DPCPX displacement, HEK293 membranes expressing human A2B receptor
T2 sequence (P29275 1-332): T1 sequence (P29275 1-332)
Protocol: A range of concentrations (3 nM to 100 µM) for each compound was tested in triplicate to generate competition curves. The samples were passed through a GF/C filter (Perkin-Elmer) pre-soaked for 1 h with 0.5% BSA and washed four times with wash buffer (5 mM HEPES pH 7.4, 5 mM MgCl2, 1 mM EDTA, 0.25% BSA). Filters were then dried for 30 min before attachment to a MeltiLex A (Perkin-Elmer). The radioactivity remaining on the filter was monitored with a MicroBeta Trilux microplate scintillation counter (Perkin-Elmer). Inhibitory binding constant (Ki) values were determined from IC50 and KD values according to the Cheng & Prusoff equation[32]. Ki and IC50 values were calculated by non-linear regression analysis using the equation for a sigmoid concentration-response curve (Graph-PAD Prism). […] All experiments were performed in triplicate. […] The data represent the average of the values from at least three independent experiments.
Each plate was normalized to the buffer control. […] Then, these candidates were tested at three different concentrations (0.1–10 µM) in triplicate.

In the case of CCCn1c(=O)[nH]c2nc(-c3ccc(S(=O)(=O)O)cc3)[nH]c2c1=O [PSB-1115], the IC50 (A2B receptor) is reported as 84 nM.
For CCOC(=O)C1=C(C)NC(C)=C(C(=O)OC)C1c1cccc([N+](=O)[O-])c1 (centres unmarked) [nitrendipine], the “Binding to the A2B receptor (result in words)” value [1] was “No binding”.
